# From ChEMBL document CHEMBL5634122, “Integrated fragment-based drug design and virtual screening techniques for exploring the antidiabetic potential of thiazolidine-2,4-diones: Design, synthesis and in vivo studies” (Eur J Med Chem, 2023)
# The source made the active and inactive calls. The calls are words filed in the database; no cut-off is given here.
# Key:
# Format in all cases: functional, organism-based
# Danio rerio [1] = experiment: Antioxidant activity in STZ-induced Zebra fish diabetic model assessed as reduction in lipid peroxidation level at 36 mg/kg measured after 10 days; details: time 10.0 day
# Mus musculus = experiment: Antidiabetic activity in STZ-induced Swiss albino diabetic mouse model assessed as reduction in blood glucose levels at 36 mg/kg, po measured after 0 to 120 mins by oral glucose tolerance test; details: time 0-120 min
# Danio rerio [2] = experiment: Antioxidant activity in STZ-induced Zebra fish diabetic model assessed as increase in GSH level at 36 mg/kg measured after 10 days by Ellman method; details: time 10.0 day
# Danio rerio [3] = experiment: Antioxidant activity in STZ-induced Zebra fish diabetic model assessed as increase in catalase level at 36 mg/kg measured after 10 days by spectrophotometry; details: time 10.0 day
# Danio rerio [4] = experiment: Antidiabetic activity in STZ-induced Zebra fish diabetic model assessed as increase in body weight at 36 mg/kg measured after 10 days; details: time 10.0 day
smiles,measurement,setting,value
CCc1ccc(CCOc2ccc(CC3SC(=O)NC3=O)cc2)nc1 (stereo not given) [PIOGLITAZONE],Activity,Danio rerio [1],Active
same,Activity,Mus musculus,Active
same,Activity,Danio rerio [2],Active
same,Activity,Danio rerio [3],Active
same,Activity,Danio rerio [4],inactive
